Among the data in PubChem BioAssay AID624125 (The Scripps Research Institute Molecular Screening Center, 2012) are inhibition values, retold here.

Protein sequences, listed by entry. Tags and fused reporters are not part of them.
UniProt P08173, whole entry: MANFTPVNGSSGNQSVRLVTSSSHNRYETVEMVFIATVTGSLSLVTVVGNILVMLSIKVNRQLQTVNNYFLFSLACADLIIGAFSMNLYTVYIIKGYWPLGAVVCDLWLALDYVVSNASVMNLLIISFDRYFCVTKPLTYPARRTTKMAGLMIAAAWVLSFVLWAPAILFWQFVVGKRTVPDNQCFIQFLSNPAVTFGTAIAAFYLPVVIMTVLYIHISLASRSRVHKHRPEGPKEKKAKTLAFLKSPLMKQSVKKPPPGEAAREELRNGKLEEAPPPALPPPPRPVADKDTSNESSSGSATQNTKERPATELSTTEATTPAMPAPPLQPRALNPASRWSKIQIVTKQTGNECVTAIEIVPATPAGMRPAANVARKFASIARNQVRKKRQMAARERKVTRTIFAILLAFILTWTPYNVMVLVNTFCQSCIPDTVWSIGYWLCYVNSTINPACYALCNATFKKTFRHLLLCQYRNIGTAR

A word on the inhibition: it is the relative decrease from the control value, in per cent.

Only a part is listed here, and it is no random draw. Some results for these compounds are left out of this collection, so the calls shown say nothing about other tests. Calls of active or inactive are those of the source.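 Rule for the calls: active = inhibition above its plate's cutoff, the mean inhibition of sample wells plus 3 SD (cut at about 27% in these data); inactive = the rest.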

For the assay, the target named is Muscarinic acetylcholine receptor M4 (Homo sapiens) (UniProt P08173). The experiment in a line: CHRM4 blockers of acetylcholine calcium response – CHO cells, Fluo-8 calcium fluorescence, primary screen (AID 624125).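 Note: 0% = acetylcholine EC80 with DMSO and 100% = DMSO without agonist.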 As to conditions: CHO-hM4 cells, ACh EC80, Fluo-8 calcium fluorescence; at 3 µM; stronger effect = higher value.
For the molecule `O=C(NCC1(N2CCCCC2)CCCCC1)c1cccc(Cl)c1`, the inhibition was inactive: -6.89%.
Take `COc1ccc(Cl)cc1C(=O)NCC1(N(C)C)CCCCC1`: the inhibition was inactive: 3.88%.
Regarding `COc1cccc(C(=O)NCC2(N3CCCCC3)CCCCC2)c1`, the inhibition is inactive: -5.95%.
With `COc1cc(C(=O)NCC2(N(C)C)CCCCC2)c([N+](=O)[O-])cc1OC` the figure was inactive: -9.12%; with `CN(C)C1(CNC(=O)c2ccc(Br)cc2)CCCCC1`, inactive: -2.18%.
`CN(C)c1cccc(C(=O)NCC2(N(C)C)CCCCC2)c1`: the inhibition is inactive: 6.14%.
`CC(C)Oc1ccc(C(=O)NCC2(N(C)C)CCCCC2)cc1`: the inhibition is inactive: -2.64%.
The result for `COc1ccc(Br)c(C(=O)NCC2(N3CCCCC3)CCCCC2)c1` reads inactive: -6.85%; that for `Cc1ccc(C(=O)NCC2(N3CCCCC3)CCCCC2)cc1`, inactive: 5.54%.
For `CC(C)N1C(=O)CC2(CCN(CCOC(=O)C(O)(c3ccccc3)c3ccccc3)CC2)C1=O`, the inhibition is inactive: 5.27%.
With `COc1cc(SC)ccc1C(=O)NCC1(N(C)C)CCCCC1` the figure was inactive: -1.48%; with `O=C(NCC1(N2CCCCC2)CCCCC1)c1cc([N+](=O)[O-])ccc1Cl`, inactive: -5.72%.
As for `O=C(NCC1(N2CCCCC2)CCCCC1)c1cccc(Br)c1`, the inhibition was inactive: -5.41%.
The result for `Cc1cc(C(=O)NCC2(N3CCCCC3)CCCCC2)ccc1[N+](=O)[O-]` reads inactive: 1.68%; that for `COc1ccc(C(=O)NCC2(N(C)C)CCCCC2)cc1`, inactive: -2.37%.
As to `O=C(NCC1(N2CCCCC2)CCCCC1)c1cc(F)c(F)cc1Cl`, the inhibition is inactive: 4.26%.
The result for `C=CCN1CCN(CCOC(=O)C(O)(c2ccccc2)c2ccccc2)CC1` reads inactive: 23.9%.
Regarding `CN(C)c1ccc(C(=O)NCC2(N(C)C)CCCCC2)cc1`, the inhibition was inactive: -9.71%.
With `Cc1ccccc1C(=O)NCC1(N2CCCCC2)CCCCC1` the figure was inactive: -0.08%.
